System: H295R adrenocortical carcinoma cells
Test: Synergy of MBZ with chemotherapeutic agents (Chou-Talalay CI, Cell Titer Glo)
Format: cell-based
Settings: in combination with MBZ, 72 hour incubation

With `COc1cccc2c1C(=O)c1c(O)c3c(c(O)c1C2=O)C[C@@](O)(C(=O)CO)C[C@@H]3O[C@H]1C[C@H](N)[C@H](O)[C@H](C)O1` [Doxorubicin] the “CI range for the concentration pairings” value was 0.689-0.697.

— patent US20190175560A1, “MEBENDAZOLE CANCER THERAPIES AND METHODS OF USE” (Shepherd Therapeutics, Inc., priority 2017, published 2019)
